As a reminder, the IC50 is the point on the concentration scale where inhibition reaches its midpoint.

We go through 2 compounds from ChEMBL document CHEMBL4229567, “Aiming to Miss a Moving Target: Bromo and Extra Terminal Domain (BET) Selectivity in Constrained ATAD2 Inhibitors” (J Med Chem, 2018).

This assay concerns the target Bromodomain-containing protein 4 (Homo sapiens, UniProt O60885). As to the kind of experiment: Inhibition of 6His-tagged Thr-BRD4 (BD1) (1 to 477 residues) (unknown origin) expressed in Escherichia coli BL21(DE3) after 30 mins in presence of biotinylated triacetylated histone H4 peptide by alexa fluor 647 dyse based TR-FRET assay.

Molecules are shown by their SMILES.

Regarding `Cc1cc2c(-c3cncc(N)c3)cnc(N[C@@H]3CCNC[C@H]3OCC3CCCCC3)c2[nH]c1=O`, the IC50 was 631 nM.
Next, `Cc1cncc(-c2ccc(N[C@@H]3CCNC[C@H]3OCC3CCS(=O)(=O)CC3)c3[nH]c(=O)c(C)cc23)c1`: 3980 nM.
